Article PMC12503259, “Establishment of an in vivo analytical method for detecting total anti-UFH activity and pharmacokinetic study in PS and R15 in rats” (PLOS One, 2025)

Experiment: Pharmacokinetic study in Wistar rats, total anti-heparin activity in plasma (fixed UFH added, residual UFH by anti-FXa kit)
Type: in vivo
Procedure: Processing of Plasma Samples: 100 μL of the unknown plasma sample was added to 500 μL of 75% methanol (methanol: water = 75:25, v/v) and vortex-mixed for 5 seconds. The mixture was then centrifuged at 12,000 r/min for 10 minutes at 25°C. The supernatant (500 μL) was collected and dried under nitrogen at 60°C. Subsequently, UFH (0.14 U·mL^-1 for PS and 0.15 U·mL^-1 for R15; 120 μL) was added, and the mixture was vigorously shaken at room temperature for 10 minutes. The residual UFH content was measured using the Heparin Anti-FXa assay kit.
The detailed procedure is as follows: Accurately pipette 40 μL of the sample into a 96-well plate. Place the plate in a microplate shaker. Using a multichannel pipette, add 40 μL of reagent R1 and mix by shaking. Incubate at 37 °C for exactly 3 minutes (start timing upon addition of R1; at 50 seconds, begin shaking with the microplate shaker for 1 minute, then place the plate in the incubator). Remove the 96-well plate from the incubator and place it on the open microplate shaker. Using a multichannel pipette, add 40 μL of reagent R2 to each well and incubate at 37 °C for 6 minutes (after adding R2, at 3 minutes and 50 seconds, open the microplate shaker and shake for 4 minutes, then return the plate to the incubator). Remove the 96-well plate from the incubator and place it on the open microplate shaker. Quickly add 40 μL of reagent R3 using a multichannel pipette and shake until 9 minutes and 10 seconds. At 9 minutes and 30 seconds, add 80 μL of 20% acetic acid to each well to terminate the reaction. Measure the absorbance at 405 nm using a microplate reader (Multiskan FC, Thermo Fisher US).
Eight Wistar rats (approximately 250 g; equally divided by sex and acclimatized for 1 week in the animal facility) were used for profiling pharmacokinetics of PS. Each rat was cannulated in carotid artery to collect blood the day before the experiment. PS was injected through the tail vein and blood samples were collected at 0 min, 1 min, 3 min, 5 min, 7 min, 9 min, 11 min, 15 min, 20 min, 30 min, 60 min and 120 min in a tube containing 4% sodium citrate. Plasma was achieved by centrifugation at 8000 r/min for 10 min, and stored in the refrigerator at −80°C. […]
During the analysis of actual samples, a standard curve and a series of calibration standards were established for each analytical batch to determine the concentration of PS and R15 in plasma. The concentrations were plotted on the X-axis, and the data were fitted using Equation (3).
Weighted least squares regression was used for the calculations. The Optical Density (OD) values of the unknown biological samples were substituted into the equation to determine the concentration of PS and R15, respectively.
Pharmacokinetic parameters of PS were calculated by WinNonlin 6.4, and all data were processed by Microsoft Excel 2013 and GraphPad Prism 8.3.

[1] = R15 900 U·kg^-1 single iv tail vein, Wistar rats, Total (male and female), mean ± SD, n = 8
[2] = R15 900 U·kg^-1 single iv tail vein, Wistar rats, female, mean ± SD, n = 4
[3] = R15 900 U·kg^-1 single iv tail vein, Wistar rats, male, mean ± SD, n = 4
[4] = R15 2700 U/kg iv, rat 1# (male), single animal
[5] = R15 2700 U/kg iv, rat 5# (male), single animal
[6] = R15 2700 U/kg iv, rat 8# (male), single animal
[7] = R15 2700 U/kg iv, rat 13# (male), single animal
[8] = R15 2700 U/kg iv, rat 21# (female), single animal
[9] = R15 2700 U/kg iv, rat 22# (female), single animal
[10] = R15 2700 U/kg iv, rat 27# (female), single animal

With N=C(N)NCCC[C@H](NC(=O)[C@H](CCCNC(=N)N)NC(=O)[C@H](CCCNC(=N)N)NC(=O)[C@H](CCCNC(=N)N)NC(=O)[C@H](CCCNC(=N)N)NC(=O)[C@H](CCCNC(=N)N)NC(=O)[C@H](CCCNC(=N)N)NC(=O)[C@H](CCCNC(=N)N)NC(=O)[C@H](CCCNC(=N)N)NC(=O)[C@H](CCCNC(=N)N)NC(=O)[C@H](CCCNC(=N)N)NC(=O)[C@H](CCCNC(=N)N)NC(=O)[C@H](CCCNC(=N)N)NC(=O)[C@H](CCCNC(=N)N)NC(=O)[C@@H](N)CCCNC(=N)N)C(=O)O [R15] as the compound, how does the Cmax (R15 900 U·kg^-1 single iv tail vein, Wistar rats, Total (male and female), at 1 min, mean ± SD, n = 8) read?
The Cmax was 11.54 ± 1.14 µg/mL.

What about the AUC [1] of the same compound?
The AUC was 1030 ± 178 µg·min/mL.

What about the CL [1] of the same compound?
The CL was 4.72 ± 0.81 mL/min/kg.

What about the MRT [1] of the same compound?
The MRT was 1.573 ± 0.3602 h.

What about the T1/2 [1] of the same compound?
Its T1/2 is 1.519 ± 0.2653 h.

And the Vd [1]?
The Vd was 608 ± 59 mL/kg.

What about the AUC [2] of the same compound?
The AUC was 1063 ± 166 µg·min/mL.

What about the CL [2] of the same compound?
Its CL is 4.50 ± 0.67 mL/min/kg.

And the Cmax [2]?
Its Cmax is 11.62 ± 1.02 µg/mL.

What about the MRT [2] of the same compound?
Its MRT is 1.58 ± 0.28 h.

What about the T1/2 [2] of the same compound?
The T1/2 was 1.552 ± 0.1923 h.

And the Vd [2]?
Its Vd is 599 ± 69 mL/kg.

What about the AUC [3] of the same compound?
Its AUC is 999 ± 209 µg·min/mL.

And the CL [3]?
Its CL is 4.95 ± 0.98 mL/min/kg.

What about the Cmax [3] of the same compound?
Its Cmax is 11.46 ± 1.41 µg/mL.

And the MRT [3]?
The MRT was 1.567 ± 0.4735 h.

What about the T1/2 [3] of the same compound?
Its T1/2 is 1.486 ± 0.3528 h.

What about the Vd [3] of the same compound?
The Vd was 616 ± 56 mL/kg.

What about the AUC [4] of the same compound?
Its AUC is 1918 min･µg･mL^-1.

And the CL [4]?
Its CL is 7.96 mL･min^-1･kg^-1.

What about the Cmax [4] of the same compound?
The Cmax was 14.61 µg･mL^-1.

What about the MRT [4] of the same compound?
The MRT was 3.9907 h.

What about the T1/2 [4] of the same compound?
The T1/2 was 1.9468 h.

What about the Vd [4] of the same compound?
The Vd was 1341 mL･kg^-1.

What about the AUC [5] of the same compound?
The AUC was 654 min･µg･mL^-1.

What about the CL [5] of the same compound?
Its CL is 16.21 mL･min^-1･kg^-1.

And the Cmax [5]?
Its Cmax is 10.94 µg･mL^-1.

And the MRT [5]?
The MRT was 1.612 h.

And the T1/2 [5]?
Its T1/2 is 2.478 h.

And the Vd [5]?
Its Vd is 3477 mL･kg^-1.

What about the AUC [6] of the same compound?
The AUC was 1251 min･µg･mL^-1.

And the CL [6]?
The CL was 12.01 mL･min^-1･kg^-1.

And the Cmax [6]?
Its Cmax is 12.70 µg･mL^-1.

What about the MRT [6] of the same compound?
Its MRT is 2.8825 h.

And the T1/2 [6]?
The T1/2 was 1.62 h.

What about the Vd [6] of the same compound?
The Vd was 1684 mL･kg^-1.

What about the AUC [7] of the same compound?
The AUC was 1141 min･µg･mL^-1.

What about the CL [7] of the same compound?
The CL was 11.69 mL･min^-1･kg^-1.

What about the Cmax [7] of the same compound?
Its Cmax is 13.51 µg･mL^-1.

And the MRT [7]?
The MRT was 3.637 h.

And the T1/2 [7]?
Its T1/2 is 4.081 h.

What about the Vd [7] of the same compound?
Its Vd is 4129 mL･kg^-1.

And the AUC [8]?
The AUC was 1674 min･µg･mL^-1.

And the CL [8]?
Its CL is 9.03 mL･min^-1･kg^-1.

And the Cmax [8]?
Its Cmax is 15.63 µg･mL^-1.

And the MRT [8]?
Its MRT is 3.9175 h.

What about the T1/2 [8] of the same compound?
The T1/2 was 2.1312 h.

What about the Vd [8] of the same compound?
Its Vd is 1667 mL･kg^-1.

And the AUC [9]?
The AUC was 1224 min･µg･mL^-1.

And the CL [9]?
The CL was 11.11 mL･min^-1･kg^-1.

What about the Cmax [9] of the same compound?
Its Cmax is 8.27 µg･mL^-1.

What about the MRT [9] of the same compound?
The MRT was 3.7197 h.

What about the T1/2 [9] of the same compound?
Its T1/2 is 3.2153 h.

And the Vd [9]?
The Vd was 3091 mL･kg^-1.

What about the AUC [10] of the same compound?
Its AUC is 1156 min･µg･mL^-1.

And the CL [10]?
The CL was 12.28 mL･min^-1･kg^-1.

What about the Cmax [10] of the same compound?
The Cmax was 7.46 µg･mL^-1.

What about the MRT [10] of the same compound?
Its MRT is 2.4073 h.
